Data on one molecule can be found in PMC2094074 (Nucleic Acids Research, 2007).

For assay [1], the target named is T1, human Rad9-Rad1-Hus1 complex (human 9-1-1 complex) (human, UniProt Q99638 1-391; O60671 1-282; O60921 1-280).
T1 sequence (looked up) 1: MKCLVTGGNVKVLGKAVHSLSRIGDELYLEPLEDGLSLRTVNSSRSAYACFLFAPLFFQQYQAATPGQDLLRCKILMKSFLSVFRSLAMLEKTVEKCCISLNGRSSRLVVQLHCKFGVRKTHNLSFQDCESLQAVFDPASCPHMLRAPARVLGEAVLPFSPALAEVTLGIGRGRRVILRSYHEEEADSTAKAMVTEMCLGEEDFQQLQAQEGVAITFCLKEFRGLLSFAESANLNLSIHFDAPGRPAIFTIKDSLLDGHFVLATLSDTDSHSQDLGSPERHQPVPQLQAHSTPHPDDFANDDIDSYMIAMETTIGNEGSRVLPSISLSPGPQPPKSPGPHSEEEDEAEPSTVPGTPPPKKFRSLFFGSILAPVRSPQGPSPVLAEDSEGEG
T1 sequence (looked up) 2: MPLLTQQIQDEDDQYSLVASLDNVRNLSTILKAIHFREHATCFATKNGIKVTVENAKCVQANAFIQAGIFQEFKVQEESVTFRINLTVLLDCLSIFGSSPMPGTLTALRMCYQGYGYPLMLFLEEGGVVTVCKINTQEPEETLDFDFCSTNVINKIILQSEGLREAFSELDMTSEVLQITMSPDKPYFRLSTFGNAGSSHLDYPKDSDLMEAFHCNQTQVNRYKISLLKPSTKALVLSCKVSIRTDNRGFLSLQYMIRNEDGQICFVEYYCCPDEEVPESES
T1 sequence (looked up) 3: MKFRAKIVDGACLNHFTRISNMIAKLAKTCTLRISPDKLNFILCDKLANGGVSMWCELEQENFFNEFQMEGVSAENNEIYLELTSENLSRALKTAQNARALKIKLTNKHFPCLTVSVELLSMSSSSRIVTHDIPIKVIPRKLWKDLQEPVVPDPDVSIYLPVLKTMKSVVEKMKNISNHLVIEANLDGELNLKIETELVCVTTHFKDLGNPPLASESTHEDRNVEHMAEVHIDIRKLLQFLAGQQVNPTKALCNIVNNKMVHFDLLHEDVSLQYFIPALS
Kind of assay: pull-down.

The target in assay [2] is T2, Schizosaccharomyces pombe Rad9-Rad1-Hus1 complex (S. pombe 9-1-1 complex) (Schizosaccharomyces pombe, UniProt P26306 1-426; P22193 1-323; P78955 1-287).
T2 sequence (looked up) 1: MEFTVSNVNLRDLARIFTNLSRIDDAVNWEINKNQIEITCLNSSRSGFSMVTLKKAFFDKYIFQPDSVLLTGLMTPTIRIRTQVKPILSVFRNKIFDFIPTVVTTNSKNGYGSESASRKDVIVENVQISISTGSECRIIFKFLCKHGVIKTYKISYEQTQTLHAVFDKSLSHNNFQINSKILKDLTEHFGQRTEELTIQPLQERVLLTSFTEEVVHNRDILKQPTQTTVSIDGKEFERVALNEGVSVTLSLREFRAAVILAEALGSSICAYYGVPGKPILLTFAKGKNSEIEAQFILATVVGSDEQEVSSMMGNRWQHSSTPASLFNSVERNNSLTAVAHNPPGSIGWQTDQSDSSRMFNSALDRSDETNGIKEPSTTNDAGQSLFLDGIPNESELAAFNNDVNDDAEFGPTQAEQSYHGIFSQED
T2 sequence (looked up) 2: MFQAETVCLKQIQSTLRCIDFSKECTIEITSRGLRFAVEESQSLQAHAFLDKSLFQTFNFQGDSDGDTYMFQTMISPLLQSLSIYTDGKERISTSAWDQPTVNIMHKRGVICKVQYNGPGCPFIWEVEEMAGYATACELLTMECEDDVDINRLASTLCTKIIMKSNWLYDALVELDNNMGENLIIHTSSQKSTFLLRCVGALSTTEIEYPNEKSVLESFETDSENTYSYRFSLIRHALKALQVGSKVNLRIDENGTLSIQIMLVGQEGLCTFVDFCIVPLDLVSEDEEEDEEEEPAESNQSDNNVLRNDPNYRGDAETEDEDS
T2 sequence (looked up) 3: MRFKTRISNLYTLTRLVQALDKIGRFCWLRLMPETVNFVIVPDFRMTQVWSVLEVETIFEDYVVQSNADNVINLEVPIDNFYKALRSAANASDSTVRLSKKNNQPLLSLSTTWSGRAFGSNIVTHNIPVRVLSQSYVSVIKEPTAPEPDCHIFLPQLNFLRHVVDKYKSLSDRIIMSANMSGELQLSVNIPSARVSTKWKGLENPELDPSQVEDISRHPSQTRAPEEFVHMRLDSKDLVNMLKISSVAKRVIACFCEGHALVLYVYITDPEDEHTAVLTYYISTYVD
Kind of assay: pull-down.

B1: GST-hTDG (full length) (enzyme, human, UniProt Q13569 1-410, looked up)
chain: MEAENAGSYSLQQAQAFYTFPFQQLMAEAPNMAVVNEQQMPEEVPAPAPAQEPVQEAPKGRKRKPRTTEPKQPVEPKKPVESKKSGKSAKSKEKQEKITDTFKVKRKVDRFNGVSEAELLTKTLPDILTFNLDIVIIGINPGLMAAYKGHHYPGPGNHFWKCLFMSGLSEVQLNHMDDHTLPGKYGIGFTNMVERTTPGSKDLSSKEFREGGRILVQKLQKYQPRIAVFNGKCIYEIFSKEVFGVKVKNLEFGLQPHKIPDTETLCYVMPSSSARCAQFPRAQDKVHYYIKLKDLRDQLKGIERNMDVQEVQYTFDLQLAQEDAKKMAVKEEKYDPGYEAAYGGAYGENPCSSEPCGFSSNGLIESVELRGESAFSGIPNGQWMTQSFTDQIPSFSNHCGTQEQEEESHA
Regarding B1, the binding result in assay [1] and in assay [2] was “binds” each time.
